Measured affinities in a library of Ab-14 heavy chain variants

Values reported by Engelhart et al. 2022, doi:10.1038/s41597-022-01779-4 (FLAb copy).

All variants were tested on one target, the spike HR2 peptide PDVDLGDISGINAS (SARS-CoV-2).

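In library AAYL49, one, two or three CDR residues were substituted; doubles and triples were drawn at random. In AlphaSeq, yeast of one mating type display the scFv and yeast of the other type display the target. Pairs that bind mate more often; barcode pairs of the diploids are counted by sequencing. Each replicate has its own calibration line, from reference interactions of the BCL2 family. The assay was run in three technical replicates.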

Parent scFv Ab-14: VH joined to VL by three GGGGS repeats. Changes lie in the heavy chain CDRs alone.
VH: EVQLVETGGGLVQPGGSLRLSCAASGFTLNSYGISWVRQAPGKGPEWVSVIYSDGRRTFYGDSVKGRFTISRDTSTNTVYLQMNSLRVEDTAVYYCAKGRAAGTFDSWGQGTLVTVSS
VL: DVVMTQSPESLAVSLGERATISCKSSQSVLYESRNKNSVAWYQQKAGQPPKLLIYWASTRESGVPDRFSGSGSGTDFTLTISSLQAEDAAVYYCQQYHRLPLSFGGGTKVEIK

The parent's heavy chain CDRs are GFTLNSYGIS, VIYSDGRRTFYGDSVK, GRAAGTFDS; each variant's own CDRs replace them letter for letter. Affinities are written as log10 Kd with Kd in nM; a lower number is a better binder. Averages over replicates are reported, and they cover detected replicates only. A pair that was not seen in that replicate is written "ND"; this usually means weak binding, but a binder can also be missed.

| CDR-H1 | CDR-H2 | CDR-H3 | log10 Kd (nM) by replicate | log10 Kd (nM), mean | signal with controls |
|---|---|---|---|---|---|
| QFTLNSYGIS | VIYSDGRRNNYGDSVK | GRAAGTFDS | ND / ND / ND | ND | 0/9 |
| GFTLNSYGSS | VIYQDGRRTFYGDSVS | GRAAGTFDS | ND / ND / ND | ND | 0/9 |
| GFTLNSYGIS | VIYSDGRRTFYGVSVK | GRRAGDFDS | ND / ND / ND | ND | 0/9 |
| GFTANSYGIS | VIYSDGRRTFYGCSVK | GRVAGTFDS | 3.18 / ND / ND | 3.18 | 0/9 |
| GFTLNSYGIS | VIYSDGRRTFYGDKVA | GRAAGTFDI | 1.93 / 1.81 / 1.87 | 1.87 | 5/9 (4.56) |
| IFTLNSYGIS | VIYSDGRKTFYGDSVV | GRAAGTFDS | ND / 3.77 / ND | 3.77 | 3/9 (3.73) |
| GFTLNSYGIS | VIYSHGRRTFYGDSVK | GRAAGDHDS | ND / ND / ND | ND | 2/9 (3.44) |
| GFTLNSYGIS | VIYSDGRRTFYGLSVK | GTAAGTVDS | ND / ND / ND | ND | 0/9 |
| GFTLNSYGIS | VIYSDYRRTFYGDSVK | IRAHGTFDS | ND / ND / ND | ND | 1/9 (3.53) |
| GHTLNSYGIS | VIYGDGRRTFYYDSVK | GRAAGTFDS | ND / 3.59 / 4.81 | 4.20 | 3/9 (3.23) |
| GFTLNSYGIS | VIYIDGRRHFYGDSVK | QRAAGTFDS | ND / 3.68 / ND | 3.68 | 1/9 (3.53) |
| GFTLNSYGIS | VIYSDGLRTFYEDSVK | GRAAGTADS | ND / ND / ND | ND | 0/9 |
| GFTLNSYGIS | VIYSDGRRTFYGRSSK | GRAAGTEDS | ND / ND / ND | ND | 0/9 |
| GFTLNSYGIS | GIYSDGRRTFYGQMVK | GRAAGTFDS | 3.29 / ND / ND | 3.29 | 2/9 (4.48) |
| GFTLQSYGIS | VIYSCGRRTFYGDSVK | GRDAGTFDS | ND / ND / ND | ND | 0/9 |
| TFTLNFYGIY | VIYSDGRRTFYGDSVK | GRAAGTFDS | ND / ND / ND | ND | 1/9 (3.00) |
| GFRLISYGIS | VIYSDGRRTFTGDSVK | GRAAGTFDS | ND / ND / ND | ND | 1/9 (2.82) |
| QFPLNSYGIW | VIYSDGRRTFYGDSVK | GRAAGTFDS | ND / ND / 1.33 | 1.33 | 0/9 |
| EFTLNQYGIN | VIYSDGRRTFYGDSVK | GRAAGTFDS | 2.85 / 2.01 / 2.02 | 2.29 | 1/9 (3.18) |
| GFTLNSYGIS | VIYSDGRRTFYGDSVK | EIAAGTVDS | 4.75 / ND / ND | 4.75 | 4/9 (4.20) |
| GFTLNSLGIS | VIYSDGRRTFYGDSVK | GRNAGTDDS | ND / 3.62 / ND | 3.62 | 2/9 (3.43) |
| GFTLESYGIS | VDVSDGRRTFYGDSVK | GRAAGTFDS | ND / ND / ND | ND | 1/9 (2.38) |
| GFTPNSYGIS | VIYSDGGRTFYGDSVK | GRAAGTFDS | ND / ND / 5.16 | 5.16 | 2/9 (3.35) |
| GFTLNSYGIS | VIYSDGRRYFFGDSAK | GRAAGTFDS | ND / 4.03 / 4.62 | 4.32 | 3/9 (5.24) |
| GFTLNSKGIW | VIYSDGRRTFYGDSWK | GRAAGTFDS | ND / 3.98 / ND | 3.98 | 2/9 (4.04) |
| GFTLGSYGDS | VIYSDGRRTFYGDIVK | GRAAGTFDS | ND / ND / ND | ND | 0/9 |
| GFTLNSYGIT | VIYSDGIRTFYGDSVK | GRAAGTHDS | 4.38 / 4.16 / 5.65 | 4.73 | 6/9 (4.76) |
| GFTLNSMGIS | VIYSDGRRTIYGDSVK | GRAAGTFDA | ND / 3.53 / ND | 3.53 | 1/9 (4.17) |
| GFPMMSYGIS | VIYSDGRRTFYGDSVK | GRAAGTFDS | 2.91 / 2.61 / ND | 2.76 | 0/9 |
| GFTLNSYGIS | VIYSDGIRTFYGDSVK | GRAARTFFS | 1.37 / 1.47 / 1.34 | 1.39 | 0/9 |
| GFTLNSYGIS | AIYSDGRRTFYGDSVF | GRAAKTFDS | 3.98 / 4.64 / 3.03 | 3.88 | 4/9 (4.70) |
| GFTLNEYGIS | VDYSDGRRTFYHDSVK | GRAAGTFDS | 4.16 / 3.34 / 4.41 | 3.97 | 2/9 (3.64) |
| GFTLNSYGIS | VIYSDGRRTFYIDSVK | GRAAGTFDS | 0.57 / 0.80 / 0.91 | 0.76 | 0/9 |
| FFTLNSYGIS | KIYSDGRRTFYGLSVK | GRAAGTFDS | 3.99 / ND / 3.96 | 3.98 | 5/9 (3.88) |
| GFTLNSYGIS | AIISDGRRTFYGDSVK | GVAAGTFDS | ND / ND / ND | ND | 0/9 |
| GFTLNSYGIS | VIYEDGRPTFYGDSVK | GRAAGTFDS | ND / ND / ND | ND | 0/9 |
| GFTHNSYGIS | VRYSDGRRTFYGDSVK | GRAAVTFDS | ND / 3.75 / 5.12 | 4.44 | 3/9 (3.70) |
| GFTLNSMGIS | VIYSDGRRTFYGDSVK | GRAAGTFDT | 4.24 / 3.15 / 2.91 | 3.43 | 4/9 (3.97) |
| GFTLNSQGIS | VIYSDGRRTFYGDSVC | GEAAGTFDS | ND / 3.72 / 4.80 | 4.26 | 4/9 (4.24) |
| GFTLNSYGMS | VIYSDGRRTFYGDSVK | PRAAGPFDS | 4.78 / 4.66 / ND | 4.72 | 3/9 (4.97) |
| GFTLNSYGIS | VIYFDQRRTFYGGSVK | GRAAGTFDS | ND / ND / ND | ND | 1/9 (2.04) |
| GFTLNHYGIS | VIYLDGRRTFYGDSVK | GRAAGDFDS | 4.85 / 3.61 / 4.92 | 4.46 | 4/9 (4.91) |
| GVTLNSYGIS | VIYSDGRRTFDGDSVK | GRAAPTFDS | ND / ND / ND | ND | 1/9 (4.07) |
| GFTLNSYGIR | VIYSDGRRTFYGDSVK | GRAAWTFVS | ND / ND / 3.77 | 3.77 | 1/9 (2.85) |
| GFTLSCYGIS | VIYSDGRRTFYGDSVK | GLAAGTFDS | ND / ND / ND | ND | 1/9 (4.74) |
| GFTLNSYKIS | VIYSDGRRTFYGDSVK | GRALGTEDS | ND / ND / ND | ND | 0/9 |
| GFTLNSYGIS | VIYSDGRRTFIGDSPI | GRAAGTFDS | ND / ND / 6.21 | 6.21 | 7/9 (5.13) |

For reference, 7 entries of the list once more:

CDR-H1,CDR-H2,CDR-H3,log10 Kd (nM) by replicate,"log10 Kd (nM), mean",signal with controls
GFTLNSMGIS,VIYSDGRRTFYGDSVK,GRAAGTFDT,4.24 / 3.15 / 2.91,3.43,4/9 (3.97)
GFTLNSLGIS,VIYSDGRRTFYGDSVK,GRNAGTDDS,ND / 3.62 / ND,3.62,2/9 (3.43)
QFPLNSYGIW,VIYSDGRRTFYGDSVK,GRAAGTFDS,ND / ND / 1.33,1.33,0/9
GFTLNHYGIS,VIYLDGRRTFYGDSVK,GRAAGDFDS,4.85 / 3.61 / 4.92,4.46,4/9 (4.91)
GFTLNSYKIS,VIYSDGRRTFYGDSVK,GRALGTEDS,ND / ND / ND,ND,0/9
GFTLNSYGIS,VIYSDGIRTFYGDSVK,GRAARTFFS,1.37 / 1.47 / 1.34,1.39,0/9
GFTLNSYGIS,GIYSDGRRTFYGQMVK,GRAAGTFDS,3.29 / ND / ND,3.29,2/9 (4.48)

Three control strains display no target. For library AAYL49, 15% of the pairings with them gave a signal, with a median of 4.06 and one signal in twenty below 2.83, so weak values seen in few replicates may be background. For each scFv, signals with the empty controls are counted beside the result, with their mean in brackets.